The values below come from ChEMBL document CHEMBL4354824, “4-Aryl-1-oxa-4,9-diazaspiro[5.5]undecane Derivatives as Dual μ-Opioid Receptor Agonists and σ1 Receptor Antagonists for the Treatment of Pain” (J Med Chem, 2020).

Protein sequences, listed by entry. Tags and fused reporters are not part of them.
UniProt P35372, whole entry, looked up: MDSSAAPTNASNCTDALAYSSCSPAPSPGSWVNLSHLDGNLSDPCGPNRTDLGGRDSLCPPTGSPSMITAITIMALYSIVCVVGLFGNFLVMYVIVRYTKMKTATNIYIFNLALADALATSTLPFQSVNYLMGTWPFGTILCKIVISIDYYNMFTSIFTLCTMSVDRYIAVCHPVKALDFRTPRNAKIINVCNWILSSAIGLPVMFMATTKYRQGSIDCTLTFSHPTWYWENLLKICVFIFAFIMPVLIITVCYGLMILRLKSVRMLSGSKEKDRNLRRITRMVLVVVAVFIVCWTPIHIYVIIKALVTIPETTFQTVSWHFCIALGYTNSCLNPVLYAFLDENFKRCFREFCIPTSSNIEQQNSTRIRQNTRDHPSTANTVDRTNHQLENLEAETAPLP

SMILES strings stand for the structures. Calls of active or inactive are those of the source. The rule behind the calls is not given here.

The test system of assay [1] is Mus musculus. The assay can be described thus: Antinociceptive activity in mouse assessed as reduction in mechanical nociception at 25 ug dosed ipsilateral route and concomitant administration of 32 mg/kg, sc sigma1 receptor agonist PRE-08452 and measured after 5 mins post dose by paw pressure pain test.
Assay [2] deals with Mus musculus. The assay can be described thus: Antinociceptive activity in mouse assessed as reduction in mechanical nociception at 25 ug dosed ipsilateral route measured after 5 mins post dose by paw pressure pain test.
The target of the next assay is Mu-type opioid receptor (Homo sapiens, UniProt P35372). The assay can be described thus: Agonist activity at human MOR expressed in CHOK1 cells assessed as […] of cAMP accumulation incubated for 45 mins by HTRF assay relative to DAMGO. In kind it is functional, cell-based. (cAMP levels reflect the balance of adenylyl cyclase and phosphodiesterase activity.)

`O=C1N(c2cccnc2C(F)(F)F)CC2(CCN(CCc3ccccc3F)CC2)OC12CC2`: the result in the assay on Mus musculus [1] was inactive. For the same compound, in the assay on Mus musculus [2], the result was Active.

As a reminder, the Emax is the greatest response seen or fitted, relative to the assay's reference. As for `O=C1COC2(CCN(CCc3ccccc3)CC2)CN1c1ccccc1`, on Mu-type opioid receptor, the Emax amounted to 76%.
